Results on six compounds are retold here after patent publication US7192924B2, “Corticotropin releasing factor 2 receptor agonists” (priority 2002, dated 2007).

The target of one test is T1, CRF2R (Homo sapiens, UniProt Q13324).
T1 sequence (Q13324 1-411): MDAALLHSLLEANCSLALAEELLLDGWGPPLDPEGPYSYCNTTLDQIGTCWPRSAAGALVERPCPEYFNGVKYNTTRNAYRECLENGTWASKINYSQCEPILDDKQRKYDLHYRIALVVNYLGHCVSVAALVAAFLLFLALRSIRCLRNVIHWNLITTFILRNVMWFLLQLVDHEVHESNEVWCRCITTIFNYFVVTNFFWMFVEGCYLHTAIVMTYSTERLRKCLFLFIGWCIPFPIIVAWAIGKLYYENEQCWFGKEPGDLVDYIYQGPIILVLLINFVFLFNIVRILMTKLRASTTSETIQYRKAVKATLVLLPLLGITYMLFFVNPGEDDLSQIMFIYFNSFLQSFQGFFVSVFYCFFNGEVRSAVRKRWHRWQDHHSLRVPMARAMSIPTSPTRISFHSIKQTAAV
The test can be described thus: CRF2R agonist activity (EC50, Emax), called comparative CRF binding. It counts as cell-based. Put shortly: (§1)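 Agonism is judged from increased cAMP, measured either directly in lysates or through reporter genes under a cAMP responsive element. Cells or membranes express only the receptor of interest, and vehicle-treated cells serve as control.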

In the next test the target is T2, CRF1R (Homo sapiens, UniProt P34998).
T2 sequence (P34998 24-415): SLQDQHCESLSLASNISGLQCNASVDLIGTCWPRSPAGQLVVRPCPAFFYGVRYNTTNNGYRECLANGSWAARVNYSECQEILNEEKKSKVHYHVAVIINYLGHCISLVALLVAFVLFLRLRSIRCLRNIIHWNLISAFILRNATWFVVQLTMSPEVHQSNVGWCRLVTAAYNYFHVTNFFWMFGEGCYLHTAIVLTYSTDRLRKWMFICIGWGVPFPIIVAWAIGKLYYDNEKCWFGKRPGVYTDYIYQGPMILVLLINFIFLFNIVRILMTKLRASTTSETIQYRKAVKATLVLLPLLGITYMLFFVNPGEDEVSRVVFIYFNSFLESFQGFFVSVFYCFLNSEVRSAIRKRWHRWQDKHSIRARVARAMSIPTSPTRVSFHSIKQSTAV
The experiment in a line: CRF1R agonist activity (EC50, Emax), called comparative CRF binding. It counts as cell-based. In a few lines:
as §1

Molecules are shown by their SMILES. Like-named read-outs stand apart in the source and are kept apart here.

On to `CC[C@H](C)[C@H](NC(=O)[C@@H](NC(=O)[C@H](CC(=O)O)NC(=O)[C@H](CC(C)C)NC(=O)[C@H](CC(C)C)NC(=O)[C@H](CC(C)C)NC(=O)[C@H](CCCNC(=N)N)NC(=O)[C@H](CC(N)=O)NC(=O)[C@H](CC(N)=O)NC(=O)[C@H](C)NC(=O)[C@H](C)NC(=O)[C@H](CCC(N)=O)NC(=O)[C@H](CCC(N)=O)NC(=O)[C@H](CCCCN)NC(=O)[C@H](CCC(=O)O)NC(=O)[C@H](CCCCN)NC(=O)[C@H](CCC(=O)O)NC(=O)[C@H](CCC(N)=O)NC(=O)[C@H](CCCCN)NC(=O)[C@H](CCC(=O)O)NC(=O)[C@@H](NC(=O)[C@H](CCC(=O)O)NC(=O)[C@@H](NC(=O)[C@H](CCSC)NC(=O)[C@H](CCCCN)NC(=O)[C@H](CCCNC(=N)N)NC(=O)[C@H](CC(C)C)NC(=O)[C@H](CC(C)C)NC(=O)CNC(=O)[C@@H](NC(=O)[C@@H]1CCCN1C(=O)[C@@H](NC(=O)[C@H](CC(=O)O)NC(=O)[C@@H](NC(=O)[C@H](CO)NC(=O)[C@@H](NC(=O)[C@@H]1CCCN1C(=O)[C@@H]1CCCN1C(=O)CNC(=O)[C@@H]1CCC(=O)N1)[C@@H](C)CC)[C@@H](C)CC)C(C)C)[C@@H](C)CC)[C@@H](C)CC)[C@@H](C)CC)[C@@H](C)O)C(N)=O` [compound 254], for which the values for the EC50 at CRF2R and at CRF1R were not below 100 nM and 708 nM, respectively.

For `CC[C@H](C)[C@H](NC(=O)[C@@H](NC(=O)[C@H](CC(=O)O)NC(=O)[C@H](CC(C)C)NC(=O)[C@H](CC(C)C)NC(=O)[C@H](CC(C)C)NC(=O)[C@H](CCCNC(=N)N)NC(=O)[C@H](CC(N)=O)NC(=O)[C@H](CC(N)=O)NC(=O)[C@H](C)NC(=O)[C@H](C)NC(=O)[C@H](CCC(N)=O)NC(=O)[C@H](CCC(N)=O)NC(=O)[C@H](CCCCN)NC(=O)[C@H](CCC(=O)O)NC(=O)[C@H](CCCCN)NC(=O)[C@H](CCC(=O)O)NC(=O)[C@H](CCC(N)=O)NC(=O)[C@H](CCCCN)NC(=O)[C@H](CCC(=O)O)NC(=O)[C@@H](NC(=O)[C@H](CCC(=O)O)NC(=O)[C@@H](NC(=O)[C@H](CC(C)C)NC(=O)[C@@H](NC(=O)[C@H](CCCNC(=N)N)NC(=O)[C@H](CC(C)C)NC(=O)[C@H](CC(C)C)NC(=O)[C@H](CCC(N)=O)NC(=O)[C@H](Cc1ccccc1)NC(=O)[C@@H]1CCCN1C(=O)[C@H](CC(C)C)NC(=O)[C@H](CC(=O)O)NC(=O)[C@@H](NC(=O)[C@H](CO)NC(=O)[C@@H](NC(=O)[C@@H]1CCCN1C(=O)[C@@H]1CCCN1C(=O)CNC(=O)[C@@H]1CCC(=O)N1)[C@@H](C)CC)[C@@H](C)CC)[C@@H](C)CC)[C@@H](C)CC)[C@@H](C)CC)[C@@H](C)O)C(N)=O` [compound 255], the values for the concentration giving a half-maximal response (EC50) at CRF2R and at CRF1R were 7 nM and 33.3 nM, respectively.

As for `CC[C@H](C)[C@H](NC(=O)[C@H](CCCCN)NC(=O)[C@H](C)NC(=O)[C@H](CC(C)C)NC(=O)[C@H](CC(C)C)NC(=O)[C@H](CCCCN)NC(=O)[C@H](C)NC(=O)[C@H](CC(N)=O)NC(=O)[C@H](CC(N)=O)NC(=O)[C@H](C)NC(=O)[C@H](C)NC(=O)[C@H](CCC(N)=O)NC(=O)[C@H](CCC(N)=O)NC(=O)[C@H](CCCCN)NC(=O)[C@H](CCC(=O)O)NC(=O)[C@H](CCCCN)NC(=O)[C@H](CCC(=O)O)NC(=O)[C@H](CCC(N)=O)NC(=O)[C@H](CCCCN)NC(=O)[C@H](CCC(=O)O)NC(=O)[C@@H](NC(=O)[C@H](CCC(=O)O)NC(=O)[C@@H](NC(=O)[C@@H](NC(=O)[C@H](CCCCN)NC(=O)[C@H](CCCNC(=N)N)NC(=O)[C@H](CC(C)C)NC(=O)[C@H](CC(C)C)NC(=O)[C@H](CCC(N)=O)NC(=O)[C@H](Cc1ccccc1)NC(=O)[C@@H]1CCCN1C(=O)[C@H](CC(C)C)NC(=O)[C@H](CC(=O)O)NC(=O)[C@@H](NC(=O)[C@H](CO)NC(=O)[C@@H](NC(=O)[C@@H]1CCCN1C(=O)[C@@H]1CCCN1C(=O)CNC(=O)[C@@H]1CCC(=O)N1)[C@@H](C)CC)[C@@H](C)CC)C(C)C)[C@@H](C)CC)[C@@H](C)CC)C(N)=O` [compound 274], the values for the concentration giving a half-maximal response (EC50) at CRF2R (read-out: CRF2R EC50) and at CRF1R (read-out: CRF1R EC50) were 13.8 nM and 508 nM, respectively.

Take `CC[C@H](C)[C@H](NC(=O)[C@H](Cc1c[nH]cn1)NC(=O)[C@H](C)NC(=O)[C@H](CC(C)C)NC(=O)[C@H](CC(C)C)NC(=O)[C@H](Cc1c[nH]cn1)NC(=O)[C@H](C)NC(=O)[C@H](CC(N)=O)NC(=O)[C@H](CC(N)=O)NC(=O)[C@H](C)NC(=O)[C@H](C)NC(=O)[C@H](CCC(N)=O)NC(=O)[C@H](CCC(N)=O)NC(=O)[C@H](CCCCN)NC(=O)[C@H](CCC(=O)O)NC(=O)[C@H](CCCCN)NC(=O)[C@H](CCC(=O)O)NC(=O)[C@H](CCC(N)=O)NC(=O)[C@H](CCCCN)NC(=O)[C@H](CCC(=O)O)NC(=O)[C@@H](NC(=O)[C@H](CCC(=O)O)NC(=O)[C@@H](NC(=O)[C@@H](NC(=O)[C@H](CCCCN)NC(=O)[C@H](CCCNC(=N)N)NC(=O)[C@H](CC(C)C)NC(=O)[C@H](CC(C)C)NC(=O)[C@H](CCC(N)=O)NC(=O)[C@H](Cc1ccccc1)NC(=O)[C@@H]1CCCN1C(=O)[C@H](CC(C)C)NC(=O)[C@H](CC(=O)O)NC(=O)[C@@H](NC(=O)[C@H](CO)NC(=O)[C@@H](NC(=O)[C@@H]1CCCN1C(=O)[C@@H]1CCCN1C(=O)CNC(=O)[C@@H]1CCC(=O)N1)[C@@H](C)CC)[C@@H](C)CC)C(C)C)[C@@H](C)CC)[C@@H](C)CC)C(N)=O` [compound 277]: the EC50 (in general, the concentration that produces a half-maximal response) at CRF2R is 28.2 nM; at CRF1R, not below 1000 nM.

For `CC[C@H](C)[C@H](NC(=O)[C@H](CCCNC(=N)N)NC(=O)[C@H](C)NC(=O)[C@H](CC(C)C)NC(=O)[C@H](CC(C)C)NC(=O)[C@H](CCCNC(=N)N)NC(=O)[C@H](C)NC(=O)[C@H](CC(N)=O)NC(=O)[C@H](CC(N)=O)NC(=O)[C@H](C)NC(=O)[C@H](C)NC(=O)[C@H](CCC(N)=O)NC(=O)[C@H](CCC(N)=O)NC(=O)[C@H](CCCCN)NC(=O)[C@H](CCC(=O)O)NC(=O)[C@H](CCCCN)NC(=O)[C@H](CCC(=O)O)NC(=O)[C@H](CCC(N)=O)NC(=O)[C@H](CCCCN)NC(=O)[C@H](CCC(=O)O)NC(=O)[C@@H](NC(=O)[C@H](CCC(=O)O)NC(=O)[C@@H](NC(=O)[C@@H](NC(=O)[C@H](CCCCN)NC(=O)[C@H](CCCNC(=N)N)NC(=O)[C@H](CC(C)C)NC(=O)[C@H](CC(C)C)NC(=O)[C@H](CCC(N)=O)NC(=O)[C@H](Cc1ccccc1)NC(=O)[C@@H]1CCCN1C(=O)[C@H](CC(C)C)NC(=O)[C@H](CC(=O)O)NC(=O)[C@@H](NC(=O)[C@H](CO)NC(=O)[C@@H](NC(=O)[C@@H]1CCCN1C(=O)[C@@H]1CCCN1C(=O)CNC(=O)[C@@H]1CCC(=O)N1)[C@@H](C)CC)[C@@H](C)CC)C(C)C)[C@@H](C)CC)[C@@H](C)CC)C(N)=O` [compound 279], the EC50 at CRF2R was 13.1 nM; on CRF1R it was not below 1000 nM.

On to `CC[C@H](C)[C@H](NC(=O)[C@H](CCCNC(=N)N)NC(=O)[C@H](C)NC(=O)[C@H](CC(C)C)NC(=O)[C@H](CC(C)C)NC(=O)[C@H](CCCNC(=N)N)NC(=O)[C@H](C)NC(=O)[C@H](CC(N)=O)NC(=O)[C@H](CC(N)=O)NC(=O)[C@H](C)NC(=O)[C@H](C)NC(=O)[C@H](CCC(N)=O)NC(=O)[C@H](CCC(N)=O)NC(=O)[C@H](CCCCN)NC(=O)[C@H](CCC(=O)O)NC(=O)[C@H](CCCCN)NC(=O)[C@H](CCC(=O)O)NC(=O)[C@H](CCC(N)=O)NC(=O)[C@H](CCCCN)NC(=O)[C@H](CCC(=O)O)NC(=O)[C@@H](NC(=O)[C@H](CCC(=O)O)NC(=O)[C@@H](NC(=O)[C@H](CCSC)NC(=O)[C@H](CCCCN)NC(=O)[C@H](CCCNC(=N)N)NC(=O)[C@H](CC(C)C)NC(=O)[C@H](CC(C)C)NC(=O)[C@H](Cc1ccccc1)NC(=O)[C@@H](NC(=O)[C@@H]1CCCN1C(=O)[C@H](CC(C)C)NC(=O)[C@H](CC(=O)O)NC(=O)[C@@H](NC(=O)[C@H](CO)NC(=O)[C@@H](NC(=O)[C@@H]1CCCN1C(=O)[C@@H]1CCCN1C(=O)CNC(=O)[C@@H]1CCC(=O)N1)[C@@H](C)CC)[C@@H](C)CC)[C@@H](C)CC)[C@@H](C)CC)[C@@H](C)CC)C(N)=O` [compound 282], for which the EC50 at CRF2R was 25.8 nM; on CRF1R, not below 1000 nM.
